The test system of the series is mucous membrane (HET-CAM). The experiment in a line: Mucous membrane compatibility, in vitro HET-CAM test, reaction time method. The protocol: Mucous membrane compatibility was evaluated by the in vitro HET-CAM test using the reaction time method (conc. 5% in 2×-distilled water, pH=6).

Take “mono-C12-glycerol ether+4EO ether carboxylic acid [Example 2]”: the Evaluation result is on record as “Slightly irritating”.

Source of the values: patent publication US20050020854A1, “Alkyl(en)ylglycerinether carboxylic acids” (priority 2001, published 2005).
